The assay addresses Cyclin-dependent kinase 14 (Homo sapiens, UniProt O94921). To be noted: 1 uM.

The chains behind the UniProt entries cited, without tags or fusion partners. Where a name states a change or a piece, a line headed by the entry shows the natural chain unless it says otherwise.
UniProt O94921: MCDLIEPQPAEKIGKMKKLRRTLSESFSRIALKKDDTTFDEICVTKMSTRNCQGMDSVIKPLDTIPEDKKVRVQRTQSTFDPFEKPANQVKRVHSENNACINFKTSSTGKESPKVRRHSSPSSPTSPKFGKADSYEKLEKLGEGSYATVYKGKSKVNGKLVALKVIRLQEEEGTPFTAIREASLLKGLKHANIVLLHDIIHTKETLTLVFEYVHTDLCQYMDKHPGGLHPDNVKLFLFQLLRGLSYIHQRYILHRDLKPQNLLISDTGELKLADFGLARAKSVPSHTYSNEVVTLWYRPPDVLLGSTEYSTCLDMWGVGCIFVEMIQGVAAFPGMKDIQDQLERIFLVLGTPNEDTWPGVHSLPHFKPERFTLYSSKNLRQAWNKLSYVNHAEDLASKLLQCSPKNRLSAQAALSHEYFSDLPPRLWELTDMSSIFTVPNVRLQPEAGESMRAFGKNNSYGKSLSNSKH

Broadly, the inhibition is the change of the read-out against control, counted positive when it falls.

Regarding `CN(C)C/C=C/C(=O)Nc1cccc(S(=O)(=O)N2CCC(NC(=O)c3n[nH]cc3NC(=O)c3c(Cl)cc(Cl)cc3Cl)CC2)c1`, the inhibition is over 75%.

(Values after ChEMBL document CHEMBL4433236, “Synthesis and structure activity relationships of a series of 4-amino-1H-pyrazoles as covalent inhibitors of CDK14” (Bioorg Med Chem Lett, 2019).)
